# An excerpt weighted towards active compounds, which were near 2.8% of everything screened.
# miR122 inh – inhibitors of miR-122 in Huh7 cells; actives 0.3% (n = 340,000); activation (reporter increase), % at 12.5 µM; Huh7 miR-122 Renilla luciferase sensor, 48 h; neutral wells = 0, positive control = 100;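 active means mean replicate activation score at least 90 and every replicate individually at or above 90; inconclusive means only one of the two criteria met; inactive means neither criterion met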;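 further: higher luciferase means less miR-122 activity so hits act as miR-122 inhibitors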
# MITF TRPM1 HTS – activators of MITF-driven TRPM1 promoter activity in SK-MEL-5 cells; SK-MEL-5 TRPM1-promoter luciferase, 24 h; % of positive control, neutral wells = 0; activation, % at 12.5 µM; actives 0.75% (n = 300,000); AID 588334;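 active means mean activation of at least 80% with every replicate also reaching 80%; inconclusive means mean reaches 80% but some replicate falls short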;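 further: 0% = neutral control wells and 100% = parthenolide positive control wells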
# esBAF inh – blocks esBAF chromatin remodeling in mouse ES cells; AID 602393; Bmi1-luciferase knock-in reporter, 24 h; 100% = twice the neutral-well signal; reporter increase, % at 12.5 µM; actives 2% (n = 350,000); in the data active means activation above about 40%; inconclusive means no clear call, values can overlap the other calls;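 further: 0% = median of the plate's neutral control wells and 100% = double that signal; a rise in the Bmi1 reporter signal indicates esBAF inhibition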
# PglD inh – PglD (C. jejuni) enzyme inhibition; actives 0.098% (n = 360,000); inhibition, % at 12.5 µM; AID 602405; purified PglD enzyme, DTNB colorimetric CoA detection; in the data active means inhibition above about 16%, passing the limit was not always enough; inconclusive means no clear call, values can overlap the other calls
# Wnt act – Wnt/beta-catenin pathway activation | Wnt/beta-catenin reporter cell assay, activator, plate reader | activation, % at 9.35 µM | actives 1.2% (n = 300,000); in the data active means activation above about 30%, passing the limit was not always enough; inconclusive means no clear call, values can overlap the other calls;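 further: 0% = neutral control wells and 100% = positive control wells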
# UUG fidelity – alters start codon recognition fidelity in yeast; S. cerevisiae UUG-firefly luciferase reporter, luminescence/redox ratio; activity score, % at 18.7 µM; actives 0.13% (n = 350,000); AID 602363;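 active = replicate mean at a twofold rise or more, about +100% in these data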;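 also: firefly luciferase made from a UUG start codon reports start codon fidelity; reporter light over untreated wells divided by growth signal over untreated wells; some hits fall short of that in this replicate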
# Starred values were filed as active, the others as inactive; ? = inconclusive; . = no result given; [ ] = dose if it differs, or a comment.
(1) O=C(Nc1ccc(Br)cc1)C1Cc2ccccc2O/C1=N\O (stereo unspecified)
(2) O=C(NC1=NCCS1)c1cccc(Br)c1
(3) COc1ccc(N(Cc2ccccc2)S(=O)(=O)c2cccc(C(=O)NC3=NCCS3)c2)cc1
(4) Cc1cc(C)nc(NC(=O)c2cccc(Br)c2)n1
(5) COc1ccc(OC)c(NC(=O)c2cccc(S(=O)(=O)N(Cc3ccccc3)c3ccccc3OC)c2)c1
(6) O=C(NC1=NCCS1)c1ccc(-c2ccc(Cl)cc2)o1
(7) Cc1cc(NC(=O)c2cccc(Br)c2)n[nH]1
(8) O=C(NC1=NCCS1)c1ccc(Cl)cc1
assay / entry | 1 | 2 | 3 | 4 | 5 | 6 | 7 | 8
MITF TRPM1 HTS | 71.1 | . | 1.3 | . | 3.5 | 70.7 | 55.8 | .
esBAF inh | 55.2* | 48.3* | 7.2 | -4.2 | . | . | 47.3* | 43.8*
UUG fidelity | -6.2 | 3.9 | -12.0 | -1.4 | . | -18.8 | -22.2 | -0.2
PglD inh | 4.1 | 7.5 | -5.3 | -8.5 | . | 1.7 | 0.8 | 0.5
Wnt act | 19.7 | 41.9* | 0.4 | 0.3 | 0.4 | . | 25.2 | 21.0
miR122 inh | -2.2 | -3.8 | 118.8* | 3.0 | . | 4.7 | . | .

(9) CN(C)C(=O)[C@@H]1[C@@H](CO)[C@@H]2Cn3c(ccc(C4=CCCC4)c3=O)[C@H]1N2CC1CCOCC1
(10) CC(C)Oc1cccc(C(=O)NC2=NCCS2)c1
(11) COc1cccc(C(=O)NC2=NCCS2)c1
(12) c1cncc(Nc2nc(-c3ccncc3)cs2)c1
(13) COc1cccc(Nc2nc(-c3sc(NC(=O)c4ccccc4)nc3C)cs2)c1
(14) Clc1ccccc1Nc1nc(-c2cccnc2)cs1
(15) COc1cccc(Nc2nc(-c3cccnc3)cs2)c1
(16) Clc1ccccc1-c1csc(Nc2cccnc2)n1
assay / entry | 9 | 10 | 11 | 12 | 13 | 14 | 15 | 16
MITF TRPM1 HTS | . | 31.5 | . | 51.0 | -16.5 | 66.2 | 80.6* | 31.2
esBAF inh | -4.9 | . | -30.6 | 3.7 | 51.6* | 29.2 | ? | 63.1*
UUG fidelity | . | -12.4 | -38.3 | -15.0 | -0.1 | -9.0 | 14.0 | 20.1
PglD inh | 2.9 | -1.0 | -4.8 | 0.3 | -3.1 | -5.1 | -2.3 | -1.0
Wnt act | . | -1.6 | 44.4* | . | 1.9 | 55.3* | 17.5 | 13.0
miR122 inh | . | . | -2.0 | -1.0 | 8.0 | 12.8 | 7.8 | .

(17) CCCN(C)C[C@H]1OCCCC[C@@H](C)Oc2ccc(NC(=O)Cc3ccccc3)cc2C(=O)N([C@@H](C)CO)C[C@H]1C
(18) C[C@@H]1CCCCO[C@H](CN(C)C(=O)C2CCCCC2)[C@H](C)CN([C@H](C)CO)C(=O)c2cc(NC(=O)Nc3cccc4ccccc34)ccc2O1
(19) CCNC(=O)Nc1ccc2c(c1)C(=O)N(C)[C@@H]1CC[C@H](CC(=O)Nc3ccccc3)O[C@H]1CO2
(20) O=C1NC(=Nc2ccccc2)S/C1=C/c1cccs1
(21) Cc1cccc(N=C2NC(=O)/C(=C\c3cccs3)S2)c1
(22) COc1ccccc1C(=O)Nc1ccc(N2CCN(S(C)(=O)=O)CC2)cc1
(23) COc1ccc(NC(=O)N(C)C[C@@H]2Oc3c(NS(=O)(=O)c4ccc(Cl)cc4)cccc3C(=O)N([C@@H](C)CO)C[C@H]2C)cc1
(24) O=S(=O)(N[C@@H]1CC[C@@H](CCn2cc(-c3ccccn3)nn2)O[C@H]1CO)c1cccc(Cl)c1
assay / entry | 17 | 18 | 19 | 20 | 21 | 22 | 23 | 24
MITF TRPM1 HTS | . | . | . | 48.2 | 35.9 | . | . | .
esBAF inh | -1.5 | -3.6 | -6.7 | . | . | 43.6* | -1.1 | -2.2
UUG fidelity | . | -9.0 | 4.1 | . | . | -13.5 | -4.5 | -11.4
PglD inh | . | 2.0 | -0.3 | . | . | -2.1 | 0.1 | 10.1
Wnt act | . | . | . | 51.2* | . | . | . | .
miR122 inh | 0.7[16.7 µM] | -9.3[16.7 µM] | -6.2[16.7 µM] | . | . | 3.5 | -4.2[16.7 µM] | -0.5[16.7 µM]

(25) COc1ccc2nc(Nc3nc(CSc4ccc(C)cc4)cc(=O)[nH]3)nc(C)c2c1
(26) Cc1ccc(SCc2cc(=O)[nH]c(Nc3nc(C)c4cccc(C)c4n3)n2)cc1
(27) O=C(C[C@@H]1CC[C@H]2[C@@H](COC[C@H](O)CN2C(=O)Nc2cc(Cl)cc(Cl)c2)O1)NCC1CC1
(28) Nc1ccc(OCc2ccccc2)cc1[N+](=O)[O-]
(29) O=[N+]([O-])c1cccnc1Oc1ccc(OCc2ccccc2)cc1
(30) Cc1noc(C)c1S(=O)(=O)N(C)C[C@H]1OCCCC[C@@H](C)Oc2ccc(NC(=O)Nc3ccc4c(c3)OCO4)cc2C(=O)N([C@H](C)CO)C[C@@H]1C
(31) Cc1cccc2c1-c1sc(C(=O)N3CCCCC3)cc1CO2
(32) COc1cccc(C(=O)Nc2sc3c(c2C(=O)O)CCCC3)c1
assay / entry | 25 | 26 | 27 | 28 | 29 | 30 | 31 | 32
MITF TRPM1 HTS | 17.0 | 2.2 | . | 16.4 | 65.3 | . | 87.6* | 6.7
esBAF inh | 28.9* | -1.2 | 10.9 | 43.7* | ? | -2.3 | 67.6* | 55.5*
UUG fidelity | 1.2 | -0.9 | . | -12.3 | -21.5 | -13.0 | 17.8 | -6.9
PglD inh | -3.0 | -5.2 | 3.0 | 1.2 | 3.8 | 2.9 | -4.9 | -3.6
Wnt act | -2.2 | . | . | 14.2 | 8.9 | . | 22.6 | 26.4
miR122 inh | . | -0.7 | -1.6[16.7 µM] | . | . | -1.4[16.7 µM] | 2.5 | .

(33) O=C(Nc1sc2c(c1C(=O)O)CCCC2)c1ccc(F)cc1
(34) Cc1ccc(-c2csc(NC(=O)c3ccc(F)cc3)c2C(=O)O)cc1
(35) NC(=O)c1c(NC(=O)c2ccc(F)cc2)sc2c1CCC2
(36) O=C(/C=C/c1cccs1)Nc1sc2c(c1C(=O)O)CCCC2
(37) Cc1cccc(C(=O)Nc2sc3c(c2C(=O)O)CCC3)c1
(38) C[C@@H]1CN([C@H](C)CO)C(=O)c2cc(NC(=O)CCC(F)(F)F)ccc2O[C@@H](C)CCCCO[C@@H]1CN(C)CC1CCCCC1
(39) Cc1noc(C)c1NC(=O)N(C)C[C@@H]1OCCCC[C@H](C)Oc2ccc(NC(=O)Nc3ccc4c(c3)OCO4)cc2C(=O)N([C@H](C)CO)C[C@@H]1C
(40) O=C(NCC[C@H]1CC[C@@H](NC(=O)C2CC2)[C@@H](CO)O1)c1cc(Cl)cc(Cl)c1
assay / entry | 33 | 34 | 35 | 36 | 37 | 38 | 39 | 40
MITF TRPM1 HTS | . | 51.5 | . | -6.4 | 20.9 | . | . | .
esBAF inh | 68.4* | 59.3* | 16.5 | 61.7* | ? | -0.7 | -1.8 | 1.9
UUG fidelity | -0.4 | -0.5 | -7.4 | -0.9 | -14.4 | 14.5 | -7.7 | 4.7
PglD inh | 1.1 | -7.3 | 0.3 | 0.0 | -4.2 | -0.4 | 6.1 | 16.3
Wnt act | 10.5 | -0.5 | -0.8 | 13.6 | 12.1 | . | . | .
miR122 inh | -1.0 | 13.2 | . | 1.6 | 4.0 | -3.0[16.7 µM] | 12.8[16.7 µM] | .

# Reprinted at random: four records from the list
(37) Cc1cccc(C(=O)Nc2sc3c(c2C(=O)O)CCC3)c1
(34) Cc1ccc(-c2csc(NC(=O)c3ccc(F)cc3)c2C(=O)O)cc1
(39) Cc1noc(C)c1NC(=O)N(C)C[C@@H]1OCCCC[C@H](C)Oc2ccc(NC(=O)Nc3ccc4c(c3)OCO4)cc2C(=O)N([C@H](C)CO)C[C@@H]1C
(33) O=C(Nc1sc2c(c1C(=O)O)CCCC2)c1ccc(F)cc1
assay / entry | 37 | 34 | 39 | 33
MITF TRPM1 HTS | 20.9 | 51.5 | . | .
esBAF inh | ? | 59.3* | -1.8 | 68.4*
UUG fidelity | -14.4 | -0.5 | -7.7 | -0.4
PglD inh | -4.2 | -7.3 | 6.1 | 1.1
Wnt act | 12.1 | -0.5 | . | 10.5
miR122 inh | 4.0 | 13.2 | 12.8[16.7 µM] | -1.0

# Further records
(41) COc1cccc(-c2ccc3c(c2)[C@H]2[C@H](CCN2C(=O)c2ccc(F)cc2)[C@H](CO)N3)c1
(42) COC(=O)c1c(NC(=O)c2cccs2)sc2c1CCC(C)C2 (stereo unspecified)
(43) O=C(Nc1sc2c(c1C(=O)O)CCCC2)c1cccs1
(44) O=C(Nc1sc2c(c1C(=O)NCc1ccco1)CCCC2)c1ccc2c(c1)OCO2
(45) O=C(Nc1sc2c(c1C(=O)O)CCC2)c1ccco1
(46) Cc1ccc(C(=O)Nc2sc3c(c2C(=O)NCc2ccco2)CCCC3)cc1
(47) CC1CCc2c(sc(NC(=O)c3cccs3)c2C(=O)O)C1 (stereo unspecified)
(48) O=C(N[C@H]1CC[C@@H](CCn2cc(-c3ccccn3)nn2)O[C@@H]1CO)c1cccnc1
(49) C[C@H](NC(=O)[C@@H]1[C@@H](CO)[C@@H]2Cn3c(cccc3=O)[C@H]1N2Cc1ccncc1)c1ccccc1
assay / entry | 41 | 42 | 43 | 44 | 45 | 46 | 47 | 48 | 49
MITF TRPM1 HTS | . | 30.6 | 33.4 | 99.7* | . | 32.1 | 12.0 | . | .
esBAF inh | 4.3 | 49.7* | 56.3* | 46.1* | 23.4 | . | . | -0.3 | 2.8
UUG fidelity | -16.5 | -7.9 | -12.0 | -6.7 | -1.5 | -11.4 | . | -10.3 | .
PglD inh | -4.4 | -5.2 | 3.9 | 5.9 | -4.6 | -3.6 | . | 0.3 | -5.1
Wnt act | . | -2.2 | . | 18.0 | 5.7 | -4.1 | 19.2 | . | .
miR122 inh | -6.5[16.7 µM] | -29.7 | 26.8 | -1.9 | 122.6* | 34.9 | . | . | 0.9[16.7 µM]
